Measurements: US20250064969A1, “METHOD FOR TREATING AUTOIMMUNE DISEASE” (Suntec Medical, Inc., priority 2022, published 2025)

Assay: Nanoparticle size by DLS
Format: physicochemical
Settings: DLS (Anton Paar Litesizer 500), in PBS; FIG. 6, FIG. 7
Method: MINC anti-HER2 nanoparticles were prepared according to WO2009/054813. In brief, anti-HER2 was incubated in PBS. […] After incubating the mixture at room temperature, 10K MWCO centrifugal filter was used to remove the unreacted oligomer flavonoid and polymer-flavonoid.
MINC (Multi-target Immune Nanocarrier Combination)-BSA nanoparticles were prepared according to WO2009/054813. In brief, BSA was incubated in PBS. Subsequently, OEGCG was added to BSA, followed by adding different polymer-flavonoid including PEG-EGCG, HA-EGCG and Dextran-EGCG. After incubating the mixture at room temperature, 10K MWCO centrifugal filter was used to remove the unreacted OEGCG and polymer-flavonoid. DLS (Anton Paar Litesizer 500) was used to measure the nanoparticle size.

In the case of trastuzumab [anti-HER antibody], the particle size is reported as 5-10 nm.
